# Source: paper PMC11480511 (Scientific Reports, 2024)
# Molecular target: T1, topoisomerase Iα (Homo sapiens, UniProt P11387)
# T1 construct: purchased
# T1 sequence (P11387 1-765): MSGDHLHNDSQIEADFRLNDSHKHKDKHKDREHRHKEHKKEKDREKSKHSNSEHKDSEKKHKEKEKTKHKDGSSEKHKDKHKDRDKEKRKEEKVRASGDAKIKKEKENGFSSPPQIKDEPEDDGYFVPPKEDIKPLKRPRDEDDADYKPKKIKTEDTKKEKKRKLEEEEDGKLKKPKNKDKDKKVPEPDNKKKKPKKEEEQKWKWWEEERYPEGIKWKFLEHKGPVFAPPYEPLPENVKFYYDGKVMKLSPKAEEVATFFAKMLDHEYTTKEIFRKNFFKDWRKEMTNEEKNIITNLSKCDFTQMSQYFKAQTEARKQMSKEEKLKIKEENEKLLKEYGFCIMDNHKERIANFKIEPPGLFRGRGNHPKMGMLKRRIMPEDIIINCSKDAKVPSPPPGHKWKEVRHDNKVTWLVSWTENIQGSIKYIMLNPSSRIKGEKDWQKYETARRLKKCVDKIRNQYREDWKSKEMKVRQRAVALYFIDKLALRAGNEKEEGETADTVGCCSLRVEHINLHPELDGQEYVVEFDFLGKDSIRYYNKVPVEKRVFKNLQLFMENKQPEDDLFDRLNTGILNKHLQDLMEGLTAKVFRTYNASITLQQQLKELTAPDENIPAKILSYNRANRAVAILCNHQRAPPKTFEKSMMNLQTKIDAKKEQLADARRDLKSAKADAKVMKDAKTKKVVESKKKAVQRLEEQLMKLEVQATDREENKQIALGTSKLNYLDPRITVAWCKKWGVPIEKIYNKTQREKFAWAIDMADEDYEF
# Assay: Topoisomerase I inhibition, human DNA topoisomerase Elisa kit
# Assay type: biochemical
# Conditions: Topoisomerase I IC50 µM ± SEM
# Protocol: Two folds of serial dilution was accomplished after standards and the tested compounds were dissolved in sample diluent. Horseradish peroxidase (HRP-avidin) and biotin-conjugated antibody were diluted 10 times each. Each well received 100 µL of each concentration of the standard or test chemicals, which were then added and incubated at 37 °C for 60 min. […] The microtiter plate was rinsed three times and given room to aspirate. After that, the plate was incubated at 37 °C for 60 min with 100 µL of HRP-avidin solution added to each well. After that, the plate was aspirated and cleaned 5 times. Each well received 90 µL of TMB substrate, and the plate was incubated for 30 min. at 37 °C in a light-protected environment. Finally, stop solution (50 µL) was loaded, and within 5 min, the absorbance at 450 nm was measured spectrophotometrically.
# Topoisomerase enzyme assay
# Topoisomerase I and II inhibitory activity […]
# topoisomerase IIβ inhibitory activity utilizing the human DNA topoisomerase Elisa kit.
# Standards and the tested compound were dissolved in sample diluent and 2 folds serial dilution was achieved. Biotin-conjugated antibody and avidin conjugated Horseradish Peroxidase (HRP-avidin) were diluted to 10 folds. 100 μL of each concentration of standard or test compound were added to each well. Incubate at 37 °C for 1 h. […] The absorbance was measured spectrophotometrically within 5 min at 450 nm .
smiles,measurement,value
"COc1cccc2c1C(=O)c1c(O)c3c(c(O)c1C2=O)C[C@@](O)(C(=O)CO)C[C@@H]3O[C@H]1C[C@H](N)[C@H](O)[C@H](C)O1 [Doxorubicin, reference compound]",IC50,3.36 ± 0.18 µM
